## Yeast mating assay 1: variants of the scFv Ab-14

Data: MIT Lincoln Laboratory AlphaSeq set, Engelhart et al. 2022, doi:10.1038/s41597-022-01779-4, as distributed in FLAb.

All variants were tested on one target, the spike HR2 peptide PDVDLGDISGINAS (SARS-CoV-2).

Parent scFv Ab-14: VH joined to VL by the linker GGGGSGGGGSGGGGS. Changes lie in the light chain CDRs alone.
VH: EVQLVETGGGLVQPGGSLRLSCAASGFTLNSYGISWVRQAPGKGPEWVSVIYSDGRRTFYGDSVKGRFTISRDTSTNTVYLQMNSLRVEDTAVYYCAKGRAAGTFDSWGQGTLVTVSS
VL: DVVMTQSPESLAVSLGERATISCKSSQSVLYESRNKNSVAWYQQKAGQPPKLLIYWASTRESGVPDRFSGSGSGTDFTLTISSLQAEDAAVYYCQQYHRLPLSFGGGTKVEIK

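The parent was found by panning a naive human phage display library on the peptide. Library AAYL50 holds single substitutions and randomly drawn double and triple substitutions in the CDRs. The assay is AlphaSeq: two haploid yeast populations carry antibody and antigen on their surface. Mating (16 h, 30 °C) was followed by selection of diploids and sequencing of their barcodes. A regression on co-assayed BCL2-family reference pairs converts the normalised counts of each replicate to an apparent Kd. The assay was run in three technical replicates.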

Substitutions are numbered in sequence along the VL above, starting at 1 (not Kabat).
Affinities are written as log10 Kd with Kd in nM; a lower number is a better binder.
"n.d." means that the variant was in the library but no mating with the target was seen in that replicate; the authors take this as a sign of poor binding, and no number exists.
As a blank, each scFv also met three strains without target: over library AAYL50, 18% of these pairings were detected, typically at 4.19 and seldom below 2.99. For each scFv, signals with the empty controls are counted beside the result, with their mean in brackets.
For reference, the parent read 0.65 as the reference entry and 1.68 as a member of this library.

changes	log10 Kd, replicates	control signals
Q27E/W56A/P101V	-0.36 / -0.04 / -0.21	1/9 (4.55)
S28Y/E61H/P101D	2.72 / 3.14 / 2.90	2/9 (4.66)
K36V/N37K/V39P	n.d. / n.d. / n.d.	0/9
Q27T/R34H/S58T	0.40 / 0.48 / 0.03	0/9
S28A/V29W/R60G	n.d. / n.d. / 4.15	2/9 (4.27)
N35C/N37V/S38A	n.d. / n.d. / n.d.	0/9
K24F/N35V/S58Y	3.75 / n.d. / n.d.	3/9 (4.29)
Y31Q/W56D	-0.43 / -0.09 / -0.34	1/9 (4.99)
Q27D/E32D/A57W	n.d. / n.d. / n.d.	2/9 (4.30)
V29E/E32S/A40F	4.18 / 3.43 / n.d.	5/9 (4.46)
S33Q/K36Q	0.48 / 0.88 / 0.85	0/9
S25C/V39P/S58V	n.d. / n.d. / n.d.	0/9
L30I/E32V/H98M	2.80 / 2.73 / 2.77	1/9 (3.55)
S25A/Q27C/A57Q	n.d. / n.d. / 4.05	0/9
Y31L/Y97G	3.45 / n.d. / 4.87	6/9 (4.51)
Y31S/S58D/L102W	n.d. / n.d. / n.d.	0/9
S26R/W56T/L102G	2.47 / 2.41 / 2.34	4/9 (4.81)
Y31G/E61H/L100E	1.78 / 1.80 / 1.94	1/9 (4.56)
E32T/T59C	0.90 / 1.47 / 1.91	1/9 (3.21)
A57M/Q95G/S103E	n.d. / n.d. / n.d.	1/9 (2.65)
A40V/H98F	5.64 / 3.72 / 4.58	3/9 (4.62)
H98S/R99V	2.45 / 1.94 / 1.85	0/9
K36F/S38F/Q96R	n.d. / n.d. / 2.93	2/9 (2.75)
S26L/S58W/E61H	n.d. / 2.29 / n.d.	1/9 (3.94)
E32G/W56V/H98T	n.d. / 3.25 / n.d.	1/9 (2.69)
W56K/P101T/L102D	n.d. / n.d. / 3.60	1/9 (3.10)
Q27A/R99Y/L100N	n.d. / n.d. / n.d.	0/9
S28E/V39K/H98I	n.d. / n.d. / 4.89	0/9
S26C/N35I/T59P	3.05 / n.d. / n.d.	0/9
K36N/P101Q	0.43 / 0.67 / 0.47	3/9 (4.08)
V39R/R60A/E61I	n.d. / 5.59 / n.d.	5/9 (4.57)
V39Y/L102N/S103G	n.d. / n.d. / n.d.	0/9
S25R/V39Q/S103K	5.47 / n.d. / n.d.	0/9
A57P/S58W/S62P	3.90 / 3.59 / 4.21	2/9 (4.33)
S28P/H98Q	0.93 / 1.09 / 0.93	5/9 (3.92)
V29I/R34S/Q96S	0.99 / 1.13 / 1.08	3/9 (4.41)
S25H/S28A/L102S	n.d. / 2.92 / n.d.	3/9 (3.61)
K24V/S33N/R34K	0.97 / 1.05 / 1.05	2/9 (4.06)
S26G/R34H/Q96I	3.02 / 2.39 / 3.45	2/9 (4.24)
V29T/H98N/S103N	n.d. / 3.11 / n.d.	1/9 (3.49)
K24C/S33I/N35G	n.d. / n.d. / n.d.	1/9 (4.03)
S28I/L30A/R34V	5.29 / 4.13 / n.d.	1/9 (3.79)
W56H/Q96S/L102Y	0.11 / 0.56 / 0.07	2/9 (3.34)
L30C/E32Q/A40N	n.d. / n.d. / n.d.	1/9 (2.56)
S28I/S58Q/H98A	1.75 / 2.02 / 1.82	3/9 (4.41)
L30I/T59C/S62Q	2.40 / 2.12 / 2.51	6/9 (4.89)
A57R/Q95G/H98S	n.d. / n.d. / n.d.	0/9
S33D	0.27 / 0.48 / 0.43	2/9 (3.78)
E32G/T59F/P101F	n.d. / 3.48 / n.d.	0/9
L30I/Y97W/L100A	4.43 / n.d. / n.d.	2/9 (5.80)

Excerpt, the first 8 entries:

changes	log10 Kd, replicates	control signals
Q27E/W56A/P101V	-0.36 / -0.04 / -0.21	1/9 (4.55)
S28Y/E61H/P101D	2.72 / 3.14 / 2.90	2/9 (4.66)
K36V/N37K/V39P	n.d. / n.d. / n.d.	0/9
Q27T/R34H/S58T	0.40 / 0.48 / 0.03	0/9
S28A/V29W/R60G	n.d. / n.d. / 4.15	2/9 (4.27)
N35C/N37V/S38A	n.d. / n.d. / n.d.	0/9
K24F/N35V/S58Y	3.75 / n.d. / n.d.	3/9 (4.29)
Y31Q/W56D	-0.43 / -0.09 / -0.34	1/9 (4.99)